The subject of data set [1] is SK-OV-3 (Ovarian). The experiment in a line: cells. It is filed as cell-based. As to conditions: Homo sapiens.
In data set [2] the test system is SNB-19 (CNS Cancer). In words: cells. It is filed as cell-based. Particulars: Homo sapiens.
Data set [3] concerns 49 mer DNA duplex 292. It is filed as biochemical.
The test system of data set [4] is Normal lymphocytes obtained from healthy donors.
Data set [5] has as its system U251 (CNS Cancer). The experiment in a line: cells. As to conditions: Homo sapiens, U-251. It is filed as cell-based.

One may read the GI50 as the concentration that inhibits growth by half. The low end stands for more potent growth inhibition, the high end for less potent growth inhibition.

As to `CC1(C)OB(c2ccc(N(CCCl)CCCl)cc2)OC1(C)C` [Compound 7, N,N-bis(2-chloroethyl)-4-(4,4,5,5-tetramethyl-1,3,2-dioxaborolan-2-yl)aniline], the values for the GI50 in data set [1] and in data set [2] were 8.03 µM and 8.06 µM, respectively.

`CC1(C)OB(c2ccc(C[N+](C)(CCCl)CCCl)cc2)OC1(C)C` [Compound 40, N,N-Bis(2-chloroethyl)-N-methyl-N-[4-(4,4,5,5-tetramethyl-1,3,2-dioxaborolan-2-yl)phenyl]methanaminium bromide]: the “concentration of H2O2 at which DNA crosslinking was observed (as low as)” value in data set [3] came out at 50 µM. In data set [4], the “apoptosis compared to time-matched controls” value was “no increase in apoptosis”. On to `CC1(C)OB(c2ccc(N(CCCl)CCOS(C)(=O)=O)cc2)OC1(C)C` [Compound 6], for which, in data set [5], the GI50 is 0.7 µM.

Source of the values: patent publication US8962670B2, “Anti-cancer agents” (UWM Research Foundation, Inc., priority 2011, dated 2015).
